Binding of CDR-mutated scFvs to a peptide of the spike HR2 region

Target: peptide PDVDLGDISGINAS, taken from heptad repeat 2 (HR2) of SARS-CoV-2 spike.

Each scFv is VH, a (GGGGS)3 linker, VL, as in the parent Ab-14, and differs from it in the CDRs of the heavy chain only.
VH: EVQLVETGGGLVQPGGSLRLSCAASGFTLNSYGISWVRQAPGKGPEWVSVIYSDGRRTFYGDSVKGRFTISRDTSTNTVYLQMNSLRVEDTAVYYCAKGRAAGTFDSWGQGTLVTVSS
VL: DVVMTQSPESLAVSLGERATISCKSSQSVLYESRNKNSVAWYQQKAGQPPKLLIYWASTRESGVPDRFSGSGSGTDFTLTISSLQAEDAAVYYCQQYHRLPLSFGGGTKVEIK

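The starting antibody came from a phage panning campaign against this peptide. AAYL49 was designed without a model: most single CDR substitutions and a random sample of double and triple ones. The assay is AlphaSeq: two haploid yeast populations carry antibody and antigen on their surface. Pairs that bind mate more often; barcode pairs of the diploids are counted by sequencing. Read counts were normalised to the haploid input and turned into Kd by a linear fit to BCL2-family pairs of known affinity, for each replicate. The assay was run in three technical replicates.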

Each variant is given by its three heavy chain CDRs, as the data file delimits them; those of the parent are GFTLNSYGIS, VIYSDGRRTFYGDSVK, GRAAGTFDS. Numbers give log10(Kd / nM), so 0 is 1 nM and 3 is 1 µM. Smaller is tighter. A pair that was not seen in that replicate is written "n.d."; this usually means weak binding, but a binder can also be missed. For reference, the parent read 0.65 as the reference entry and 4.11 (one replicate of three) as a member of this library. Empty control strains, which show no peptide, gave a signal in 15% of pairings with library AAYL49; the median was 4.06 and 95% of these signals were weaker than 2.83. No background was subtracted. The control count says in how many pairings with the empty strains this scFv gave a signal, with their mean in brackets.

{"CDR-H1": "GFTLNSYGIS", "CDR-H2": "VEYSHGRRTFYGDSVK", "CDR-H3": "GRAAGTFDL", "log10 Kd, replicates": "3.23 / n.d. / n.d.", "signal with controls": "0 of 9"}
{"CDR-H1": "GFTLNSYGIS", "CDR-H2": "VIWSDGRRTFYGDSVK", "CDR-H3": "GRAAGTFDS", "log10 Kd, replicates": "n.d. / n.d. / n.d.", "signal with controls": "0 of 9"}
{"CDR-H1": "GFTLNSYGIS", "CDR-H2": "PIYCDGRRTFYGTSVK", "CDR-H3": "GRAAGTFDS", "log10 Kd, replicates": "n.d. / n.d. / n.d.", "signal with controls": "0 of 9"}
{"CDR-H1": "GFTLRSYGIS", "CDR-H2": "VIYSDGRKTFYGDSVK", "CDR-H3": "ARAAGTFDS", "log10 Kd, replicates": "5.13 / n.d. / 5.69", "signal with controls": "2 of 9 (3.80)"}
{"CDR-H1": "GFTLNSYGIW", "CDR-H2": "VIYSDGRLCFYGDSVK", "CDR-H3": "GRAAGTFDS", "log10 Kd, replicates": "n.d. / n.d. / 4.72", "signal with controls": "0 of 9"}
{"CDR-H1": "QFALNSYGIS", "CDR-H2": "VIYWDGRRTFYGDSVK", "CDR-H3": "GRAAGTFDS", "log10 Kd, replicates": "2.39 / 2.51 / 2.95", "signal with controls": "1 of 9 (3.38)"}
{"CDR-H1": "GFRLNSYGIS", "CDR-H2": "LIISDGRRTFYGDSVK", "CDR-H3": "GRAAGTFDS", "log10 Kd, replicates": "n.d. / 3.36 / n.d.", "signal with controls": "3 of 9 (4.01)"}
{"CDR-H1": "GRTLNSYGIS", "CDR-H2": "VIYSDGQRTFYGDSDK", "CDR-H3": "GRAAGTFDS", "log10 Kd, replicates": "n.d. / 4.34 / n.d.", "signal with controls": "1 of 9 (4.22)"}
{"CDR-H1": "GFTLNSYGIS", "CDR-H2": "VIYSDGRRTFYGCLVK", "CDR-H3": "GREAGTFDS", "log10 Kd, replicates": "n.d. / n.d. / 4.16", "signal with controls": "0 of 9"}
{"CDR-H1": "GFTLNSYGRS", "CDR-H2": "VIYSDGRRTFAGESVK", "CDR-H3": "GRAAGTFDS", "log10 Kd, replicates": "n.d. / 3.29 / n.d.", "signal with controls": "0 of 9"}
{"CDR-H1": "GFTLNSYGIS", "CDR-H2": "VIYCDGRRTKYGDSVK", "CDR-H3": "GRAAWTFDS", "log10 Kd, replicates": "n.d. / n.d. / n.d.", "signal with controls": "1 of 9 (2.84)"}
{"CDR-H1": "GFTLNSYGIS", "CDR-H2": "VIYSDGRCTFYGDSVK", "CDR-H3": "GRKAGTIDS", "log10 Kd, replicates": "n.d. / n.d. / n.d.", "signal with controls": "2 of 9 (2.84)"}
{"CDR-H1": "GFTLNSYGIK", "CDR-H2": "VIYSDGRRTFYGDSVK", "CDR-H3": "GRAAYYFDS", "log10 Kd, replicates": "n.d. / n.d. / n.d.", "signal with controls": "0 of 9"}
{"CDR-H1": "GFTLNSYGIS", "CDR-H2": "VIYSDGRRTFYGCSVK", "CDR-H3": "GHAAGTFDQ", "log10 Kd, replicates": "3.86 / 2.58 / 3.15", "signal with controls": "0 of 9"}
{"CDR-H1": "GFTLTSYGIS", "CDR-H2": "VIYSDGRRTFYGDSVY", "CDR-H3": "GRAAGTTDS", "log10 Kd, replicates": "3.71 / n.d. / n.d.", "signal with controls": "5 of 9 (4.25)"}
{"CDR-H1": "GFTLNSYGIS", "CDR-H2": "CEYGDGRRTFYGDSVK", "CDR-H3": "GRAAGTFDS", "log10 Kd, replicates": "n.d. / 4.39 / 5.71", "signal with controls": "4 of 9 (4.88)"}
{"CDR-H1": "GFTDNTYGIS", "CDR-H2": "VIYSDGRRTFYGDSVK", "CDR-H3": "GREAGTFDS", "log10 Kd, replicates": "n.d. / n.d. / n.d.", "signal with controls": "2 of 9 (3.24)"}
{"CDR-H1": "GFTLNSYGIS", "CDR-H2": "VIYSDGRRTFYGDKVK", "CDR-H3": "GRAAGTFDS", "log10 Kd, replicates": "1.76 / 1.66 / 2.06", "signal with controls": "2 of 9 (4.18)"}
{"CDR-H1": "GFTLNSYGIS", "CDR-H2": "VIYKDGRRTFYGDSHA", "CDR-H3": "GRAAGTFDS", "log10 Kd, replicates": "5.66 / n.d. / n.d.", "signal with controls": "1 of 9 (3.58)"}
{"CDR-H1": "GFTGNSYGNS", "CDR-H2": "VIYSDGRRTFYGDSVK", "CDR-H3": "GRAAGTKDS", "log10 Kd, replicates": "n.d. / 4.18 / n.d.", "signal with controls": "2 of 9 (4.31)"}
{"CDR-H1": "GFTLNSYGIS", "CDR-H2": "VIYSDGQRTFYGDSVK", "CDR-H3": "GRPAGHFDS", "log10 Kd, replicates": "1.86 / 1.71 / 1.84", "signal with controls": "1 of 9 (4.76)"}
{"CDR-H1": "GFTLNSYGIS", "CDR-H2": "VIYSDGYRTFYADSVK", "CDR-H3": "GRAALTFDS", "log10 Kd, replicates": "0.48 / 0.57 / 0.54", "signal with controls": "0 of 9"}
{"CDR-H1": "GFTLNSTGIS", "CDR-H2": "VIYSDGRRTFYGDSQK", "CDR-H3": "GRAAGMFDS", "log10 Kd, replicates": "n.d. / 2.23 / n.d.", "signal with controls": "0 of 9"}
{"CDR-H1": "GQTLNSYGIS", "CDR-H2": "GIYSDGRRTFYADSVK", "CDR-H3": "GRAAGTFDS", "log10 Kd, replicates": "4.34 / n.d. / n.d.", "signal with controls": "3 of 9 (4.05)"}
{"CDR-H1": "GFTLNSYGIS", "CDR-H2": "VIYSDGRRTFYPDFVK", "CDR-H3": "GRAAGTFWS", "log10 Kd, replicates": "n.d. / n.d. / n.d.", "signal with controls": "1 of 9 (2.58)"}
{"CDR-H1": "GFTLNSYGIS", "CDR-H2": "VIYSDGRRTVYGDTVK", "CDR-H3": "GRAAGTFDS", "log10 Kd, replicates": "1.38 / 1.10 / 1.44", "signal with controls": "1 of 9 (3.36)"}
{"CDR-H1": "GFTLNSYGIS", "CDR-H2": "VLYSVGSRTFYGDSVK", "CDR-H3": "GRAAGTFDS", "log10 Kd, replicates": "n.d. / n.d. / n.d.", "signal with controls": "1 of 9 (3.22)"}
{"CDR-H1": "GPTLNSYGIS", "CDR-H2": "VIYSDGRRTFYGDSVK", "CDR-H3": "GRAATTFDP", "log10 Kd, replicates": "n.d. / 2.44 / n.d.", "signal with controls": "0 of 9"}
{"CDR-H1": "GFTLNPYGIS", "CDR-H2": "VIYSDGRRTCYGDSVK", "CDR-H3": "GRAAGTFDV", "log10 Kd, replicates": "6.26 / 4.51 / 6.14", "signal with controls": "2 of 9 (5.20)"}
{"CDR-H1": "GFTLNSYGIS", "CDR-H2": "VVYSDGRRTFYGDSVK", "CDR-H3": "GGAAGTFRS", "log10 Kd, replicates": "n.d. / n.d. / n.d.", "signal with controls": "0 of 9"}
{"CDR-H1": "GFTLNSYGIS", "CDR-H2": "VIYSDGRRTFYGDSVK", "CDR-H3": "GDAAVTFDS", "log10 Kd, replicates": "2.25 / 1.94 / 2.11", "signal with controls": "4 of 9 (4.14)"}

From the AlphaSeq antibody data of Engelhart et al. 2022 (doi:10.1038/s41597-022-01779-4), copy in the FLAb collection.